The values that follow are results of earlier work, collected in PMC7215941.

Chains of the proteins cited; added tags and fusions are not shown. Residues count along the entry.
UniProt P42081, 24-247: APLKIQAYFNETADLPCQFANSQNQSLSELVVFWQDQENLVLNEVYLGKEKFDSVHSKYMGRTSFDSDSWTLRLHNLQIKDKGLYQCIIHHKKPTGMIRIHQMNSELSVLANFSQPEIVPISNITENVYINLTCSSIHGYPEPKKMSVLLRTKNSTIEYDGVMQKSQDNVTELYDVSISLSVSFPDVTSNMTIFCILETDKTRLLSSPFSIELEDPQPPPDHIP

One series deals with CD86 (Homo sapiens) (UniProt P42081).
A further series has as its target CD80 (Homo sapiens) (UniProt P33681).

Take CTLA4 (from UniProt P16410): the Kd in the series with CD86 (Homo sapiens) and with CD80 (Homo sapiens) was 12 nM each time.
